Data from patent publication US11419866B2, “Pharmaceutical composition for sustained release delivery of buprenorphine” (Foresee Pharmaceuticals Co., Ltd., priority 2018, dated 2022).

Experiment: Benzaldehyde formation from benzyl alcohol with antioxidants (summary statements)
Settings: in the presence of MTG

SMILES	benzaldehyde production with added chemical stabilizer
O=C(O)CCP(CCC(=O)O)CCC(=O)O	benzyl aldehyde formation still occurs
O=C1O[C@H]([C@@H](O)CO)C(O)=C1O	significantly reduced
